# Reference: patent publication EP0041644B1, “Salts of 2-hydroxymalonato diammine platinum (II) compounds, process for preparing said compounds and pharmaceutical compositions containing said compounds” (priority 1980, dated 1981)
# Legend:
# Assay type in all cases: in vivo, mice
# [1] = test system: B16 Melanoma; assay: B16 Melanoma - Test 1 (ip tumor brei); details: for mice cured: ip B16, at the dose of maximum T/C
# [2] = test system: L1210 Leukemia; assay: L1210 Leukemia - Test 2; details: 4 mg/kg/inj ip, qd 1→9
# Text: Intravenous administration of sodium salt was effective only when given on a multi-dose regimen (T/C of 143%) and was not as effective as when given ip or when compared to iv cis- diamminedichloroplatinum (II) (maximum T/C of 179%) on the same multi-dose schedule.
# [3] = test system: Lewis Lung Carcinoma; assay: Lewis Lung Carcinoma - Test 1 (ip, delayed therapy)
# [4] = test system: B16 Melanoma; assay: B16 Melanoma - Test 2 (ip tumor brei); details: QD +9
# [5] = test system: L-1210 Leukemia; assay: L-1210 Leukemia (Table IX); details: qd 1→9
smiles,measurement,setting,value
"[NH2][Pt]1([NH2])[O]C(=O)C([O-])C(=O)[O]1.[NH4+] [Example 1, 2-Hydroxymalonato diammine platinum (II), ammonium salt]",Survivors Day 5(60),"[1]; Day 60 (figure in parentheses), 8 mg/kg/day ip, QD 1→9, vehicle H2O",1
same,Survivors Day 5(60),"[1]; Day 60 (figure in parentheses), 16 mg/kg/day ip, QD 1→9, vehicle H2O",1
same,mice cured,[1],1 of 10
same,Survivors Day 5(60),"[1]; mouse, in vivo, ip, 8 mg/kg/day",10/10
same,Survivors Day 5(60),"[1]; mouse, in vivo, ip, 16 mg/kg/day",8/10
same,Survivors Day 5(60),"[1]; mouse, in vivo, ip, 24 mg/kg/day",10/10
same,Survivors Day 5(60),"[1]; mouse, in vivo, ip, 32 mg/kg/day",5/10
"[NH2][Pt]1([NH2])[O]C(=O)C([O-])C(=O)[O]1.[Na+] [Example 3, 2-Hydroxymalonato diammine platinum (II), sodium salt]",Survivors Day 5(30),[2],6/6
same,Survivors Day 9(48),"[3]; Day 9, 4 mg/kg/inj ip, qd 5→13",5/6
same,Survivors Day 9(48),"[3]; Day 48 (figure in parentheses), 40 mg/kg/inj ip, d. 5,9&13",1
same,Survivors Day 9(48),"[3]; Day 48 (figure in parentheses), 60 mg/kg/inj ip, d. 5,9&13",1
same,Survivors Day 9(48),"[3]; Day 48 (figure in parentheses), 80 mg/kg/inj ip, d. 5,9&13",2
same,Survivors Day 9(48),"[3]; mouse, in vivo, ip, 8 mg/kg",6/6
same,Survivors Day 9(48),"[3]; mouse, in vivo, ip, 12 mg/kg",6/6
same,Survivors Day 9(48),"[3]; mouse, in vivo, ip, 16 mg/kg",6/6
same,Survivors Day 9(48),"[3]; mouse, in vivo, ip, 20 mg/kg",6/6
same,Survivors Day 9(48),"[3]; mouse, in vivo, ip, 40 mg/kg",6/6
same,Survivors Day 9(48),"[3]; mouse, in vivo, ip, 60 mg/kg",6/6
same,Survivors Day 9(48),"[3]; mouse, in vivo, ip, 80 mg/kg",6/6
same,Survivors Day 9(48),"[3]; mouse, in vivo, iv, 20 mg/kg",6/6
same,Survivors Day 9(48),"[3]; mouse, in vivo, iv, 40 mg/kg",6/6
same,Survivors Day 9(48),"[3]; mouse, in vivo, iv, 60 mg/kg",6/6
same,Survivors Day 9(48),"[3]; mouse, in vivo, iv, 80 mg/kg",6/6
"[NH2][Pt]1([NH2])[O]C(=O)C(O)C(=O)[O]1 [2-Hydroxymalonato diammine platinum (II), 2-hydroxymalonato diammine platinum (II)]",Survivors Day 5(60),"[1]; Day 60 (figure in parentheses), 4 mg/kg/day ip, QD 1→9, vehicle CMC + H2O",2
same,Survivors Day 5(60),"[1]; Day 60 (figure in parentheses), 16 mg/kg/day ip, QD 1→9, vehicle CMC + H2O",5
same,Survivors Day 5(60),"[1]; Day 60 (figure in parentheses), 24 mg/kg/day ip, QD 1→9, vehicle CMC + H2O",1
same,mice cured,[1],4/10
same,Survivors Day 10 (60),"[4]; Day 10, 16 mg/kg/day ip",9/10
same,Survivors Day 10 (60),"[4]; Day 60 (figure in parentheses), 2 mg/kg/day ip",1
same,Survivors Day 10 (60),"[4]; Day 60 (figure in parentheses), 8 mg/kg/day ip",1
same,Survivors Day 10 (60),"[4]; Day 60 (figure in parentheses), 16 mg/kg/day ip",7
"O=C1[O][Pt]2([NH]CC3(CCCCC3)C[NH]2)[O]C(=O)C1[O-].[Na+] [Example 9, 2-Hydroxymalonato (1,1-diaminomethylcyclohexane)-platinum (II), sodium salt]",Survivors Day 5(45),[5]; 2 mg/kg/inj ip,6/6
same,Survivors Day 5(45),[5]; 4 mg/kg/inj ip,6/6
